Assay results published in US8518710B2, “Photon reducing agents for fluorescence assays” (Life Technologies Corporation, priority 1997, dated 2013).

Experiment: Reduction of solution fluorescence by transition metal salts and complexes (Example 5)
Conditions: 10 μM fluorophore, K-MOPS pH 7.15, ex 395 nm, em 460 nm

Substance: potassium ferricyanide (III)
- concentration range reducing coumarin fluorescence: low millimolar range
